Results reported in US20240360179A1, “STAPLED PEPTIDES AND METHODS THEREOF” (FOG PHARMACEUTICALS, INC., priority 2021, published 2024).

Protein sequences, listed by entry. Tags and fused reporters are not part of them.
UniProt P35222, whole entry: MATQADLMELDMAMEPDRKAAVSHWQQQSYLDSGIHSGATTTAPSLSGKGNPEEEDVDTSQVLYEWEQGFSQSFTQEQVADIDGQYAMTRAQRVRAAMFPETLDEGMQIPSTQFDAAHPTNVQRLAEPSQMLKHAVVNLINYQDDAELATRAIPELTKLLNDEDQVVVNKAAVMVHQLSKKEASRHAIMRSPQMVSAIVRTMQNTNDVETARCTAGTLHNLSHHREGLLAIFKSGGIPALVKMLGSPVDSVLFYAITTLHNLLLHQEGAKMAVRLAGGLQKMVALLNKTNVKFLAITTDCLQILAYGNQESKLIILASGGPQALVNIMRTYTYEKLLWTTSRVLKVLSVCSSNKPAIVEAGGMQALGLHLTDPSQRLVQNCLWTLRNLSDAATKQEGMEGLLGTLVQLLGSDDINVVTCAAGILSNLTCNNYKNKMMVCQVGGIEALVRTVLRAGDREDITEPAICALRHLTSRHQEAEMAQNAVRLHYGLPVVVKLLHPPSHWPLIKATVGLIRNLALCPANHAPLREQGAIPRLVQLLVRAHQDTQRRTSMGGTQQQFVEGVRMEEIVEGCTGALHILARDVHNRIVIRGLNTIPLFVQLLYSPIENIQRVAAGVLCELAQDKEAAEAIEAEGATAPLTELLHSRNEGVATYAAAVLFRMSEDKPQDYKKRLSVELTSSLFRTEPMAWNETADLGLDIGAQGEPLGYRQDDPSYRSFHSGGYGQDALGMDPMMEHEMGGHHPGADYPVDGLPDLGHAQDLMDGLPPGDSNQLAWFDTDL

What follows are molecules tested against beta-catenin/TCF4 interaction (Homo sapiens, UniProt P35222) (assay: cell-based). Conditions: NanoBRET Abs IC50 (uM).
Parameters: host or cells: HEK293
In the case of `CC(=O)N1CCC[C@]12CC=CCCCC1(CCCC=CCCCOC(=O)N3CC[C@@]4(C3)NC(=O)[C@H](CCCCNC(=O)CC[C@@H](C(N)=O)NC(=O)[C@H](Cc3csc5ccccc35)NC(=O)[C@H](Cc3ccsc3)NC4=O)NC(=O)[C@H](Cc3ccccc3)NC(=O)[C@H](C)NC(=O)[C@H](C)NC(=O)[C@H](CC(=O)O)NC(=O)[C@H](CC(=O)O)NC1=O)NC(=O)[C@H](CC(C)C)NC(=O)[C@H](CC(=O)O)NC2=O` (single isomer, unassigned) [I-4, Ac-PL3-Asp-Leu-B5-Asp-Asp-Ala-Ala-Phe-Lys*3-PyrS2-3Thi-BztA-GlnR*3-NH2], the IC50 is reported as over 10 µM.
`CC(=O)N1CCC[C@]12CC=CCCCC1(CCCC=CCCCOC(=O)N3CC[C@@]4(C3)NC(=O)[C@@H](CCCCNC(=O)CC[C@@H](C(N)=O)NC(=O)[C@H](Cc3csc5ccccc35)NC(=O)[C@H](Cc3ccsc3)NC4=O)NC(=O)[C@H](Cc3ccccc3)NC(=O)[C@H](C)NC(=O)[C@H](C)NC(=O)[C@H](Cc3cccc(C(=O)O)c3)NC(=O)[C@H](CC(=O)O)NC1=O)NC(=O)[C@H](CC(C)C)NC(=O)[C@H](CC(=O)O)NC2=O` (single isomer, unassigned) [I-10, Ac-PL3-Asp-Leu-B5-Asp-3COOHF-Ala-Ala-Phe-dLys*3-PyrS2-3Thi-BztA-GlnR*3-NH2] gave an IC50 of over 10 µM.
Work on `CC(=O)N1CCC[C@]12CC=CCCCC1(CCCC=CCCCOC(=O)N3CC[C@@]4(C3)NC(=O)[C@H](CCCCNC(=O)CC[C@@H](C(N)=O)NC(=O)[C@H](Cc3csc5ccccc35)NC(=O)[C@H](Cc3ccsc3)NC4=O)NC(=O)[C@H](Cc3ccccc3)NC(=O)[C@H](C)NC(=O)[C@H](C)NC(=O)[C@H](Cc3cccc(C(=O)O)c3)NC(=O)[C@H](CC(=O)O)NC1=O)NC(=O)[C@H](CC(C)C)NC(=O)[C@H](CC(=O)O)NC2=O` (single isomer, unassigned) [I-12, Ac-PL3-Asp-Leu-B5-Asp-3COOHF-Ala-Ala-Phe-Lys*3-PyrS2-3Thi-BztA-GlnR*3-NH2] yielded an IC50 of 3 to 10 µM.
`CC(=O)N1CCC[C@]12CC=CCCCC1(CCCC=CCCCOC(=O)N3CC[C@@]4(C3)NC(=O)[C@H](CCC(=O)NCCCC[C@@H](C(N)=O)NC(=O)[C@H](Cc3csc5ccccc35)NC(=O)[C@H](Cc3ccsc3)NC4=O)NC(=O)[C@H](Cc3ccccc3)NC(=O)[C@H](C)NC(=O)[C@H](C)NC(=O)[C@H](Cc3cccc(C(=O)O)c3)NC(=O)[C@H](CC(=O)O)NC1=O)NC(=O)[C@H](CC(C)C)NC(=O)[C@H](CC(=O)O)NC2=O` (single isomer, unassigned) [I-16, Ac-PL3-Asp-Leu-B5-Asp-3COOHF-Ala-Ala-Phe-GlnR*3-PyrS2-3Thi-BztA-Lys*3-NH2] showed an IC50 of 3 to 10 µM.
`CC(=O)N1CCC[C@]12CC=CCCCC1(CCCC=CCCCOC(=O)N3CC[C@@]4(C3)NC(=O)[C@H](CCCCNC(=O)CC[C@@H](C(=O)N[C@@H](C)C(N)=O)NC(=O)[C@H](Cc3csc5ccccc35)NC(=O)[C@H](Cc3ccccc3C(F)(F)F)NC4=O)NC(=O)[C@H](Cc3ccccc3)NC(=O)[C@H](C)NC(=O)C(C)(C)NC(=O)[C@H](Cc3cccc(C(=O)O)c3)NC(=O)[C@H](CC(=O)O)NC1=O)NC(=O)[C@H](CC(C)(C)C)NC(=O)[C@H](CC(=O)O)NC2=O` (single isomer, unassigned) [I-69, Ac-PL3-Asp-Npg-B5-Asp-3COOHF-Aib-Ala-Phe-Lys*3-PyrS2-2F3MeF-BztA-GlnR*3-Ala-NH2] was tested, and the IC50 was under 1.5 µM.
Work on `CC(=O)N1CCC[C@]12CC=CCCCC1(CCCC=CCCCOC(=O)N3CC[C@@]4(C3)NC(=O)[C@H](CCCCNC(=O)CC[C@@H](C(=O)N[C@@H](C)C(N)=O)NC(=O)[C@H](Cc3csc5ccccc35)NC(=O)[C@H](Cc3ccccc3C(F)(F)F)NC4=O)NC(=O)[C@H](Cc3ccccc3)NC(=O)[C@H](C)NC(=O)[C@H](C)NC(=O)[C@H](Cc3cccc(C(=O)O)c3)NC(=O)[C@H](CC(=O)O)NC1=O)NC(=O)[C@H](CC1CCCCC1)NC(=O)[C@H](CC(=O)O)NC2=O` (single isomer, unassigned) [I-98, Ac-PL3-Asp-Cha-B5-Asp-3COOHF-Ala-Ala-Phe-Lys*3-PyrS2-2F3MeF-BztA-GlnR*3-Ala-NH2] yielded an IC50 of 3 to 10 µM.
With `CC(=O)N1CCC[C@]12CC=CCCCC1(CCCC=CCCCOC(=O)N3CC[C@@]4(C3)NC(=O)[C@H](CCCCNC(=O)CC[C@@H](C(=O)N[C@@H](C)C(N)=O)NC(=O)[C@H](Cc3csc5ccccc35)NC(=O)[C@H](Cc3ccccc3C(F)(F)F)NC4=O)NC(=O)[C@H](Cc3ccccc3)NC(=O)[C@H](C)NC(=O)[C@H](CC3CCCCC3)NC(=O)[C@H](Cc3cccc(C(=O)O)c3)NC(=O)[C@H](CC(=O)O)NC1=O)NC(=O)[C@H](CC(C)(C)C)NC(=O)[C@H](CC(=O)O)NC2=O` (single isomer, unassigned) [I-102, Ac-PL3-Asp-Npg-B5-Asp-3COOHF-Cha-Ala-Phe-Lys*3-PyrS2-2F3MeF-BztA-GlnR*3-Ala-NH2] the IC50 was 3 to 10 µM.
Molecule `CCCC[C@@H]1NC(=O)[C@]23CCN(C2)C(=O)OCCCC=CCCCC2(CCCC=CC[C@]4(CCCN4C(C)=O)C(=O)N[C@@H](CC(=O)O)C(=O)N[C@@H](CC(C)(C)C)C(=O)N2)C(=O)N[C@@H](CC(=O)O)C(=O)N[C@@H](Cc2cccc(C(=O)O)c2)C(=O)NC(C)(C)C(=O)N[C@@H](C)C(=O)N[C@@H](Cc2ccccc2)C(=O)N[C@@H](CCCCNC(=O)CC[C@@H](C(=O)N[C@@H](C)C(N)=O)NC(=O)[C@H](Cc2csc4ccccc24)NC1=O)C(=O)N3` (single isomer, unassigned) [I-272, Ac-PL3-Asp-Npg-B5-Asp-3COOHF-Aib-Ala-Phe-Lys*3-PyrS2-nLeu-BztA-GlnR*3-Ala-NH2] has an IC50 of 1.5 to 3 µM.

The molecules below were run against T1, full-length B-Catenin (Uniprot ID P35222) (Homo sapiens, UniProt P35222) (assay: biochemical). Conditions: beta-Catenin FP IC50 (nM), competition fluorescence polarization.
T1 construct: 10 nM full-length B-Catenin (Uniprot ID P35222)
Type: binding
Work on `CC(=O)N1CCC[C@]12CC=CCCCC1(CCCC=CCCCOC(=O)N3CC[C@@]4(C3)NC(=O)[C@H](CCCCNC(=O)CC[C@@H](C(=O)N[C@@H](C)C(N)=O)NC(=O)[C@H](Cc3csc5ccccc35)NC(=O)[C@H](Cc3ccsc3)NC4=O)NC(=O)[C@H]([C@H](c3ccccc3)C(C)C)NC(=O)[C@H](C)NC(=O)C(C)(C)NC(=O)[C@H](Cc3cccc(C(=O)O)c3)NC(=O)[C@H](CC(=O)O)NC1=O)NC(=O)[C@H](CC(C)(C)C)NC(=O)[C@H](CC(=O)O)NC2=O` (single isomer, unassigned) [I-596, Ac-PL3-Asp-Npg-B5-Asp-3COOHF-Aib-Ala-SbiPrF-Lys*3-PyrS2-3Thi-BztA-GlnR*3-Ala-NH2] yielded an IC50 of over 1000 nM.
For `CC(=O)N1CCC[C@]12CC=CCCCC1(CCCC=CCCCOC(=O)N3CC[C@@]4(C3)NC(=O)[C@H](CCCCNC(=O)CC[C@@H](C(=O)N[C@@H](C)C(N)=O)NC(=O)[C@H](Cc3csc5ccccc35)NC(=O)[C@H](Cc3ccsc3)NC4=O)NC(=O)[C@@H]([C@@H](c3ccccc3)C(C)C)NC(=O)[C@H](C)NC(=O)C(C)(C)NC(=O)[C@H](Cc3cccc(C(=O)O)c3)NC(=O)[C@H](CC(=O)O)NC1=O)NC(=O)[C@H](CC(C)(C)C)NC(=O)[C@H](CC(=O)O)NC2=O` (single isomer, unassigned) [I-598, Ac-PL3-Asp-Npg-B5-Asp-3COOHF-Aib-Ala-RbiPrDF-Lys*3-PyrS2-3Thi-BztA-GlnR*3-Ala-NH2], the IC50 was over 1000 nM.
With `CC(=O)N1CCC[C@]12CC=CCCCC1(CCCC=CCCCOC(=O)N3CC[C@@]4(C3)NC(=O)[C@H](CCCCNC(=O)CC[C@@H](C(=O)N[C@@H](C)C(N)=O)NC(=O)[C@H](Cc3csc5ccccc35)NC(=O)[C@H](Cc3ccsc3)NC4=O)NC(=O)[C@H]([C@H](C)c3c(C)cccc3C)NC(=O)[C@H](C)NC(=O)C(C)(C)NC(=O)[C@H](Cc3cccc(C(=O)O)c3)NC(=O)[C@H](CC(=O)O)NC1=O)NC(=O)[C@H](CC(C)(C)C)NC(=O)[C@H](CC(=O)O)NC2=O` (single isomer, unassigned) [I-600, Ac-PL3-Asp-Npg-B5-Asp-3COOHF-Aib-Ala-RbMeXylA-Lys*3-PyrS2-3Thi-BztA-GlnR*3-Ala-NH2] the IC50 was over 1000 nM.
In the case of `CC(=O)N1CCC[C@]12CC=CCCCC1(CCCC=CCCCOC(=O)N3CC[C@@]4(C3)NC(=O)[C@H](CCCCNC(=O)CC[C@@H](C(=O)N[C@@H](C)C(N)=O)NC(=O)[C@H](Cc3csc5ccccc35)NC(=O)[C@H](Cc3ccsc3)NC4=O)NC(=O)[C@@H]([C@H](C)c3c(C)cccc3C)NC(=O)[C@H](C)NC(=O)C(C)(C)NC(=O)[C@H](Cc3cccc(C(=O)O)c3)NC(=O)[C@H](CC(=O)O)NC1=O)NC(=O)[C@H](CC(C)(C)C)NC(=O)[C@H](CC(=O)O)NC2=O` (single isomer, unassigned) [I-602, Ac-PL3-Asp-Npg-B5-Asp-3COOHF-Aib-Ala-RbMeXylDA-Lys*3-PyrS2-3Thi-BztA-GlnR*3-Ala-NH2], the IC50 is reported as over 1000 nM.
Work on `CC(=O)N1CCC[C@]12CC=CCCCC1(CCCC=CCCCOC(=O)N3CC[C@@](C(=O)N[C@@H](Cc4ccsc4)C(=O)N[C@@H](Cc4csc5ccccc45)C(=O)N[C@@H](CCC(N)=O)C(N)=O)(C3)NC(=O)[C@@H]3CCCCn4cc(nn4)C[C@H](NC(=O)[C@H](CC(=O)O)NC(=O)[C@H](CC(=O)O)NC1=O)C(=O)N[C@@H](C)C(=O)N[C@@H](Cc1ccccc1)C(=O)N3)NC(=O)[C@H](CC(C)(C)C)NC(=O)[C@H](CC(=O)O)NC2=O` (stereo partly drawn) [I-26, Ac-PL3-Asp-Npg-B5-Asp-Asp-sAla*3-Ala-Phe-TriAzLys*3-PyrS2-3Thi-BztA-Gln-NH2] yielded an IC50 of 750 to 1000 nM.
With `CC(=O)N1CCC[C@]12CC=CCCCC1(CCCC=CCCCOC(=O)N3CC[C@@](C(=O)N[C@@H](Cc4ccsc4)C(=O)N[C@@H](Cc4csc5ccccc45)C(=O)N[C@@H](CCC(N)=O)C(N)=O)(C3)NC(=O)[C@@H]3CCCCn4cc(nn4)C[C@H](NC(=O)[C@H](Cc4cccc(C(=O)O)c4)NC(=O)[C@H](CC(=O)O)NC1=O)C(=O)N[C@@H](C)C(=O)N[C@@H](Cc1ccccc1)C(=O)N3)NC(=O)[C@H](CC(C)(C)C)NC(=O)[C@H](CC(=O)O)NC2=O` (stereo partly drawn) [I-27, Ac-PL3-Asp-Npg-B5-Asp-3COOHF-sAla*3-Ala-Phe-TriAzLys*3-PyrS2-3Thi-BztA-Gln-NH2] the IC50 was 200 to 750 nM.
With `CC(=O)N1CCC[C@]12CC=CCCCC1(CCCC=CCCCOC(=O)N3CC[C@@](C(=O)N[C@@H](Cc4ccccc4C(F)(F)F)C(=O)N[C@@H](Cc4csc5ccccc45)C(=O)N[C@@H](CCC(N)=O)C(N)=O)(C3)NC(=O)[C@@H]3CCCCn4cc(nn4)C[C@H](NC(=O)[C@H](Cc4cccc(C(=O)O)c4)NC(=O)[C@H](CC(=O)O)NC1=O)C(=O)N[C@@H](C)C(=O)N[C@@H](Cc1ccccc1)C(=O)N3)NC(=O)[C@H](CC(C)(C)C)NC(=O)[C@H](CC(=O)O)NC2=O` (stereo partly drawn) [I-28, Ac-PL3-Asp-Npg-B5-Asp-3COOHF-sAla*3-Ala-Phe-TriAzLys*3-PyrS2-2F3MeF-BztA-Gln-NH2] the IC50 was 750 to 1000 nM.
